Experiments:
Test in all cases: Enzyme activity test, mobility shift assay (Table 1)
[1] = molecular target: CDK7/Cyclin H/MAT1 kinase (Homo sapiens (Human), UniProt P50613); format: biochemical; settings: read-out: CDK7 kinase IC50; 2 mM ATP; pre-incubated 0 and 60 minutes
[2] = molecular target: CDK9/Cyclin Tl (Homo sapiens (Human), UniProt P50750); format: biochemical; settings: read-out: CDK9 kinase IC50; 2 mM ATP
[3] = molecular target: CDK12 (aa686-1082)/Cyclin K (Homo sapiens (Human), UniProt Q9NYV4); settings: read-out: CDK12 kinase IC50; 2 mM ATP
[4] = molecular target: CDK2/Cyclin El (Homo sapiens (Human), UniProt P24941); settings: read-out: CDK2 kinase IC50; 2 mM ATP

Sequences of proteins named here, by UniProt entry; tags and fusion partners are left off. Residues count along the entry.
UniProt P50613, whole entry: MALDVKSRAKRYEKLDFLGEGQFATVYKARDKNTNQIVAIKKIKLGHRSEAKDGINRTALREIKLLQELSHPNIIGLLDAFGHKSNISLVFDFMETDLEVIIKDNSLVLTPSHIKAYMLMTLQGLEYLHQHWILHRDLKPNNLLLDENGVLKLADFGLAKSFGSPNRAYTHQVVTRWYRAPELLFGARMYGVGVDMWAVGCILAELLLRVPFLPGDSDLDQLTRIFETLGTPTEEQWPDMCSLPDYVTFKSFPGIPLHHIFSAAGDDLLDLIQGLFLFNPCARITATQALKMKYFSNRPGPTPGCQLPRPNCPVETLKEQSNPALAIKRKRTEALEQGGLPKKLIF
UniProt P50750, whole entry: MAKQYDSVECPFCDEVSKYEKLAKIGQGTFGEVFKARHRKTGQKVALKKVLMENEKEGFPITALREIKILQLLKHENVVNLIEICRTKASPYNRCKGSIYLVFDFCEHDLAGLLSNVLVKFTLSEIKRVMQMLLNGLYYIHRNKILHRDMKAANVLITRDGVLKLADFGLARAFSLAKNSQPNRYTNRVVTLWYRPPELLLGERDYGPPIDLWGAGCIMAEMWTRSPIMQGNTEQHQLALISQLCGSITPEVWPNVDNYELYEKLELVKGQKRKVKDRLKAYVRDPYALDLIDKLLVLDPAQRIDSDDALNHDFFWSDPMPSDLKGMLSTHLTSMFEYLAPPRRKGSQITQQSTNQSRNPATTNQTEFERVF
UniProt Q9NYV4, 686-1082 limits assumed: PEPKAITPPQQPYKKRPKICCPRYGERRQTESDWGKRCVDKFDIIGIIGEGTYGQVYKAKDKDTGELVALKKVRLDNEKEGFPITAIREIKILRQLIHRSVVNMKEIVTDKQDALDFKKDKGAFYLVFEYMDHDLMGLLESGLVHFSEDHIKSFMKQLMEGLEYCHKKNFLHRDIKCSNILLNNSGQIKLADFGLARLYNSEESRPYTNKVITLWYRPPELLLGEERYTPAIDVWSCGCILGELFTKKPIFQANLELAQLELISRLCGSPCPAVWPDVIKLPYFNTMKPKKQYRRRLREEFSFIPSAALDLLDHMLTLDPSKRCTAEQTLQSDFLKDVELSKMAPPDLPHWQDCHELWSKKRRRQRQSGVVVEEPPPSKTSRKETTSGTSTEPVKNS
UniProt P51948, whole entry partner: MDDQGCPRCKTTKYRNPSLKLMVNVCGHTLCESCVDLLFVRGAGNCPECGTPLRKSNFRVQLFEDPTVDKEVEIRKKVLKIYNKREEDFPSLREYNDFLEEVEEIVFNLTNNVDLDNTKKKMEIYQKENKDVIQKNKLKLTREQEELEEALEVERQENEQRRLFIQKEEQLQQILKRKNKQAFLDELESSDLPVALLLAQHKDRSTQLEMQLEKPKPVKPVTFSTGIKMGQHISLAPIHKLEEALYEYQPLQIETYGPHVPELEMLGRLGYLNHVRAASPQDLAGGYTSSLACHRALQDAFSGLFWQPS
UniProt P51946, whole entry partner: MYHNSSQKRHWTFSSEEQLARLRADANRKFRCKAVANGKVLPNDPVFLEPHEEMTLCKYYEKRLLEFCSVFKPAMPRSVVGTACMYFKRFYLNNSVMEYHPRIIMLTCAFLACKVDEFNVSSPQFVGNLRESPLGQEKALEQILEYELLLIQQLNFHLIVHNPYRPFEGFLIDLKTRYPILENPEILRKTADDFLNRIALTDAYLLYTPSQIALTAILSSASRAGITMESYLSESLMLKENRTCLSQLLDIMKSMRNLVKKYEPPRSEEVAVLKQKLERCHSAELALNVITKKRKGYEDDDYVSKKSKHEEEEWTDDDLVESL
UniProt O75909, whole entry partner: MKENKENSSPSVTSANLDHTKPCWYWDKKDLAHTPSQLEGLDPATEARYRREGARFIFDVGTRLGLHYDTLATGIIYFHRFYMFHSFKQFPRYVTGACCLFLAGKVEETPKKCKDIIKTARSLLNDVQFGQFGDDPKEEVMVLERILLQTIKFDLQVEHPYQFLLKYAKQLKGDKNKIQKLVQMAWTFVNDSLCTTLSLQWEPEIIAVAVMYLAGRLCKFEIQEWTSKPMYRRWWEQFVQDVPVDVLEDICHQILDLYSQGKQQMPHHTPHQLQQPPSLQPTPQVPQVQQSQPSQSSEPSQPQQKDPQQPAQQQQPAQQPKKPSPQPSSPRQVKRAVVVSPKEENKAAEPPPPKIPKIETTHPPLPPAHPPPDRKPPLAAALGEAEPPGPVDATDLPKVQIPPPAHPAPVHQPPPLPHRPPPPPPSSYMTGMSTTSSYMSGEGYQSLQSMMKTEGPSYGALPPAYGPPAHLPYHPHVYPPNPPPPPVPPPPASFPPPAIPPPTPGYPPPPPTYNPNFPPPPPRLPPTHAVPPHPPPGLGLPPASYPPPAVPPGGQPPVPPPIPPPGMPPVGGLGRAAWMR
UniProt O60563, whole entry partner: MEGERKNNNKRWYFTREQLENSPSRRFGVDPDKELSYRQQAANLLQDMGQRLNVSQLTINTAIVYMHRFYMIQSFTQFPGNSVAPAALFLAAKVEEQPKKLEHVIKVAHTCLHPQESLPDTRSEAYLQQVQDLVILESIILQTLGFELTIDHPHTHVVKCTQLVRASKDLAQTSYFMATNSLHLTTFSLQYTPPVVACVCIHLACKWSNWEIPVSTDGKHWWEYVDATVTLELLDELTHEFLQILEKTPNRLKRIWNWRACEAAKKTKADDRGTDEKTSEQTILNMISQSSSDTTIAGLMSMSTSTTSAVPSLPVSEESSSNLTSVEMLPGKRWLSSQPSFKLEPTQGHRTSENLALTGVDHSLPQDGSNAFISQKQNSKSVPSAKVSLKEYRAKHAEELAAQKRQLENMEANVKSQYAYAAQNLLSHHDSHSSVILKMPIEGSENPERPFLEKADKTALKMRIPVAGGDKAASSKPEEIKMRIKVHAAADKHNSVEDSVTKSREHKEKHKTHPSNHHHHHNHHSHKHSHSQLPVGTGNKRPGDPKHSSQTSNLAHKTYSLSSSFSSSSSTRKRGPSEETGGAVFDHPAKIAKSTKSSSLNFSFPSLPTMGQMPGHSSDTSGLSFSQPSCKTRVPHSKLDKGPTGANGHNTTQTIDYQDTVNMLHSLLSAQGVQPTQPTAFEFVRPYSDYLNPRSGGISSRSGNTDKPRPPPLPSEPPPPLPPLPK

Row | IC50 [1] | SMILES | IC50 [2] | IC50 [3] | IC50 [4]
1 | > 500 nM | COC(=O)Nc1ccc2c(-c3nc(N[C@@H]4CCCNC4)ncc3C(F)(F)F)c[nH]c2c1Br | – | – | –
2 | < 50 nM | COC(=O)Nc1ccc2c(-c3nc(N[C@H]4CCC5(CC5)NC4)ncc3C(F)(F)F)c[nH]c2c1OC(F)(F)F | – | – | –
3 | > 500 nM | COC(=O)Nc1ccc2c(-c3nc(Nc4ccc(C)nc4)ncc3C(F)(F)F)c[nH]c2c1Br | – | – | –

Row | SMILES | IC50 [1] | IC50 [2] | IC50 [3] | IC50 [4]
4 | COC(=O)Nc1ccc2c(-c3nc(N[C@H]4CCCN(C)C4)ncc3C(F)(F)F)c[nH]c2c1Br | < 50 nM | > 500 nM | > 500 nM | > 500 nM
